The text below walks through data of ChEMBL document CHEMBL1140704, “Further structure-activity relationships study of hybrid 7-{[2-(4-phenylpiperazin-1-yl)ethyl]propylamino}-5,6,7,8-tetrahydronaphthalen-2-ol analogues: identification of a high-affinity D3-preferring agonist with potent in vivo activity with long duration of action” (J Med Chem, 2008).

Amino acid sequences for entries named in this document (tags omitted).
UniProt P14416, whole entry: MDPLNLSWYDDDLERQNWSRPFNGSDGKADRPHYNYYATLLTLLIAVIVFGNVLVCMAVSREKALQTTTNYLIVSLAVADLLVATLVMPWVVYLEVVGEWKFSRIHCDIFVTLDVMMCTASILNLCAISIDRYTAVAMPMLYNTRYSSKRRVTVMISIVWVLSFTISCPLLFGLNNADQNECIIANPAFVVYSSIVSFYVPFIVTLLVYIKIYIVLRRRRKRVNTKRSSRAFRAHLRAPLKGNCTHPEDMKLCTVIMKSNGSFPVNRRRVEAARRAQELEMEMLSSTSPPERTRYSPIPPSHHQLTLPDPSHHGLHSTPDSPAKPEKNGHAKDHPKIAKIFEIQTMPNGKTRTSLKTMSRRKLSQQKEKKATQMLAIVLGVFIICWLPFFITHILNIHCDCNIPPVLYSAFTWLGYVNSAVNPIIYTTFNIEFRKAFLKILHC

This assay deals with D(2) dopamine receptor (Homo sapiens, UniProt P14416). Kind of assay: biochemical.

On to `CCCN(CCN1CCN(c2ccccc2)CC1)C1CCc2c(O)cccc2C1` (stereo in doubt; (-)-25), for which the Ki – broadly, a measure of affinity in units of concentration, obtained from inhibition or displacement – is 26 nM.
